According to US20030039628A1, “Activation and protection of T-cells (CD4+ and CD8+) using an H2 receptor agonist and other T-cell activating agents” (priority 1998, published 2003):

Tests used:
[1] = system: CD69 expression on T-cells; experiment: CD69 expression on T-cells incubated with or without autologous monocytes (MO), flow cytometry; type: cell-based, human
Description: To study the activation characteristics of T-cells in the presence and absence of MO, T-cell activation compounds, H2-receptor agonists, and H2O2 scavengers, peripheral venous blood was obtained as freshly prepared leukopacks from healthy blood donors at the Blood Centre, Sahlgren's Hospital, Göteborg, Sweden. The blood (65 ml) was mixed with 92.5 ml Iscove's medium, 35 ml 6% Dextran (Kabi Pharmacia, Stockholm, Sweden) and 7.5 ml acid citrate dextrose (ACD) (Baxter, Deerfield, Ill.). After incubation for 15 minutes at room temperature, the supernatant was carefully layered onto Ficoll-Hypaque (Lymphoprep, Myegaard, Norway). Mononuclear cells (MNC) were collected at the interface after centrifugation at 380 g for 15 minutes at room temperature, washed twice in PBS and resuspended in Iscove's medium supplemented with 10% human AB^+ serum. During all further separation of cells, the cell suspensions were kept in siliconized test tubes (Vacuette, Greiner, Stockholm).
The MNC were further separated into lymphocyte and monocyte (MO) populations using the counter-current centrifugal elutriation (CCE) technique originally described by Yasaka and co-workers (Yasaka, T. et al., J. Immunol., 127:1515) with modifications as described in Hansson, M., et al. (J. Immunol., 156: 42 (1996); hereby incorporated by reference). […]
Flow cytometry was used in the experiments described below to identify the various sub-populations of T-cells. […] The effects of MO exposure in the presence and absence of histamine and T-cell activation compounds were determined using the CD69 T-cell activation marker. […]
The following protocol was used in experiments reporting the detection of surface antigens of cell populations. […] The cells were washed twice in PBS and resuspended in 500:1 sterile filtered PBS and analyzed by use of flow cytometry on a FACSort with a Lysys II software program (Becton & Dickenson). […] The flow rate was adjusted to <200 cells×s^− and at least 5×10^3 cells were analyzed for each sample, if not otherwise stated. […]

[2] = system: T-cells and NK-cells; experiment: MO-induced cell death (apoptosis) of T-cells and NK-cells, flow cytometry; type: cell-based, human; conditions: 100 U/ml
Description: In this Example, apoptotic morphology of lymphocytes exposed to MO was monitored by staining cells with a dye mix containing acridine orange (10:g/ml; Sigma) and ethidium bromide (10:g/ml; Sigma), both prepared in phosphate buffered saline. One microliter (1:1) of dye mix was added to 25:1 of cells suspension (1-2×10^6/ml) in siliconized test tubes. Thereafter, 10:1 of the cell suspension was placed on a glass slide and immediately counted in a fluorescence microscope (Nikon) under times forty (×40) magnification with qualification of dead, living, apoptotic and non-apoptotic cells. (See Hellstrand, K., et al. J. Immunol., 153: 4940-4947 (1994); Hansson, M., et al., J. Immunol. 156:42-47 (1996)).
Approximately 5-fold higher concentrations of exogenous hydrogen peroxide are required to induce apoptosis in CD3e^+ T-cells than in CD56^+ NK-cells. (See Hansson M., et al., supra). Cell death in lymphocytes was monitored by gating nonviable T-cells or NK-cells after exposure to MO, with and without histamine or catalase. A gate with reduced forward scatter and increased right angle scatter characteristic of apoptosis was employed in these studies. (See Hansson M., et al., supra; Mizgerd J. P., et al., J. Leukoc. Biol. 59:189 (1996); herein incorporated by reference; gate also described in Example 1).

IL-2: cytokine synthesized by T-cells; T-cell activating compound
fraction of CD3e+ cells that acquired CD69 ([1]; IL-2 100 U/ml, 16 hours, absence of MO): Approximately one fourth | CD4+ cells with induced CD69 ([1]; IL-2, absence of MO): approximately 20% | percentage of CD3+ cells displaying the CD69 marker ([1]; with MO, IL-2 alone, absence of catalase): greater than 4% | effect of concomitant treatment on MO-induced cell death and on histamine protection [2]: unaffected
